Data taken from ChEMBL document CHEMBL2086387 (ACS Med Chem Lett, 2012).

Sequences of proteins named here, by UniProt entry; tags and fusion partners are left off.
UniProt P0DMS8, whole entry: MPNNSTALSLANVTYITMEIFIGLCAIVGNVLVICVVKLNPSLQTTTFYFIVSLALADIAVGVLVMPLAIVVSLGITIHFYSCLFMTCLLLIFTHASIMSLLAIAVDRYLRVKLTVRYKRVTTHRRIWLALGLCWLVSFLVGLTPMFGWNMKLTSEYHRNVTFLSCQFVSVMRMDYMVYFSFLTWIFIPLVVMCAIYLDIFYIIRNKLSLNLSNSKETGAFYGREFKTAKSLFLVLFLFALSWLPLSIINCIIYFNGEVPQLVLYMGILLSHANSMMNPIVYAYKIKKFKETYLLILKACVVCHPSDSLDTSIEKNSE

Target: Adenosine receptor A3 (Homo sapiens, UniProt P0DMS8)
Assay: Displacement of [3H]I-AB-MECA from human recombinant adenosine A3 receptor expressed in CHO cells after 60 mins by liquid scintillation counting
Type: cell-based
How it was run: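 Competition binding with standard 3H- or 125I-labeled high-affinity nucleoside radioligands at the human receptor subtype; Ki derived from binding curves. Means ± standard error, n = 3 unless noted (n = 2 where flagged).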

O[C@@H]1[C@H](O)[C@@H]2C[C@@H]2[C@H]1n1cnc2c(NCCc3ccccc3)nc(C#Cc3ccccc3)nc21
Ki: 20 nM

O[C@@H]1[C@H](O)[C@@H]2C[C@@H]2[C@H]1n1cnc2c(NCCc3ccccc3)nc(C#Cc3ccccc3Cl)nc21
Ki: 37 nM
